Results on 7 molecules are retold here after patent publication US20240216355A1, “PHARMACEUTICAL COMPOSITIONS FOR USE IN THE PREVENTION AND TREATMENT OF A DISEASE OR DISORDER CAUSED BY OR ASSOCIATED WITH ONE OR MORE PREMATURE TERMINATION CODONS” (Monte Rosa Therapeutics, Inc., priority 2021, published 2024).

Sequences of proteins named here, by UniProt entry; tags and fusion partners are left off.
UniProt P15170, whole entry: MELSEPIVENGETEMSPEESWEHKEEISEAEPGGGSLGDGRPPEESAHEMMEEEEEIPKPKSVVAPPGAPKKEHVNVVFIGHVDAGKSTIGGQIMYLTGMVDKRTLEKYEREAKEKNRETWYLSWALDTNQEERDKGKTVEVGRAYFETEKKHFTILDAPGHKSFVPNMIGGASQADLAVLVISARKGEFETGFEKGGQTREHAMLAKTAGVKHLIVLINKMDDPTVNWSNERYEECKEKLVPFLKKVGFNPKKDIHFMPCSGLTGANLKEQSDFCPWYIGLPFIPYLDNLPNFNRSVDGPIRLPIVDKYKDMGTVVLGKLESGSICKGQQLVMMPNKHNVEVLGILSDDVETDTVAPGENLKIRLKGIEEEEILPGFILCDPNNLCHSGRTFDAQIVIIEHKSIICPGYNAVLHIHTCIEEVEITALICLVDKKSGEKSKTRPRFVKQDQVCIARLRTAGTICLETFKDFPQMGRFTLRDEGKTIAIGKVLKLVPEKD
UniProt Q96SW2, whole entry: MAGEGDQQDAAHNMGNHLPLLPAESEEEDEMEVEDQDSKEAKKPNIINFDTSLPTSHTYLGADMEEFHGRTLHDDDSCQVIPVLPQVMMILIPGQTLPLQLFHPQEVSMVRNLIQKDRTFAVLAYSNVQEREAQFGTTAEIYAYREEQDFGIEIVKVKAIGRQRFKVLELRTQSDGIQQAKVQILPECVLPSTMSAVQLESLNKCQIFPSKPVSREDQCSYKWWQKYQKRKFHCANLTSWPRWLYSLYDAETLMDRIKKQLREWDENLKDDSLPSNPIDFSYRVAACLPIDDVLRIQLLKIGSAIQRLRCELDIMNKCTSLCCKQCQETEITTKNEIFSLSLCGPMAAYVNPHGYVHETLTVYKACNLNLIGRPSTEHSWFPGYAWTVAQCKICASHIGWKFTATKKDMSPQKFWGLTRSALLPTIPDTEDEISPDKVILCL
UniProt Q16531, whole entry partner: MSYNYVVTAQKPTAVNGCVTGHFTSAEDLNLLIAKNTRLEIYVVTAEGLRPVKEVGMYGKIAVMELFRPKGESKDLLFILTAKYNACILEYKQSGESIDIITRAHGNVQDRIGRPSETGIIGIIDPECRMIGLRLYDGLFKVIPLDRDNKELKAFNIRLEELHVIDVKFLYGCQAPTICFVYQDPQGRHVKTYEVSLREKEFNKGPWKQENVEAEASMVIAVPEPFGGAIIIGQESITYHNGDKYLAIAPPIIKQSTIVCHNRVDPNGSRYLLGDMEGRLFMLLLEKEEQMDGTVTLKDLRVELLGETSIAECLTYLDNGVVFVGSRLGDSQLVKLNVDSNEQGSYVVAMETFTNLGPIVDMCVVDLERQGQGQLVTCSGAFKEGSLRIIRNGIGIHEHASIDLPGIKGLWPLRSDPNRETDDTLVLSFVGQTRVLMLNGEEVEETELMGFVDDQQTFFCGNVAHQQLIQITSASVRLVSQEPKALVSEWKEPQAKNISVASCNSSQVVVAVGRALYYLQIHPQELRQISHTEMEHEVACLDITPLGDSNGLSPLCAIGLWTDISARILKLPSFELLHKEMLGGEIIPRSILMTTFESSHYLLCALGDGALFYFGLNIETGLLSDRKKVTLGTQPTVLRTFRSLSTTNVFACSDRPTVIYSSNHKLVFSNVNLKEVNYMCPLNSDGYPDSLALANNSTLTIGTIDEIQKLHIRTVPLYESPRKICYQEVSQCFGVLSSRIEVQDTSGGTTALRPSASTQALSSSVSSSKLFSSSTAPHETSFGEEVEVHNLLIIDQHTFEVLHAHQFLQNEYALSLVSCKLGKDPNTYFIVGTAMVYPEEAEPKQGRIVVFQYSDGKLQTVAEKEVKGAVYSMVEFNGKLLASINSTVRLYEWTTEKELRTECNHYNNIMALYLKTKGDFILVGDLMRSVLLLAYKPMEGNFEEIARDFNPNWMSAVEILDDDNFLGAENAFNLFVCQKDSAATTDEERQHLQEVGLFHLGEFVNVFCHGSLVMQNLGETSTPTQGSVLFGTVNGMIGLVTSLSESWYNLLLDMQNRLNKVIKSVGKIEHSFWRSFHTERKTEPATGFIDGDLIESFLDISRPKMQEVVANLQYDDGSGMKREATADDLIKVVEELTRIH

Broadly, the DC50 is the concentration giving 50% degradation.

For the experiment, the target named is GSPT1 (Homo sapiens, UniProt P15170+Q96SW2). In words: GSPT1 degradation immunofluorescence assay in CAL-51 cells. The conditions noted are these: read-out: Activity for GSPT1 degradation (DC50 code), 6 hours treatment, compounds 1 to 165.
For `Cc1c(Cl)cc(NC(=O)NCc2ccc3c(c2)C(=O)N(C2CCC(=O)NC2=O)C3)cc1C12CC1CN(C)C2` (stereo not shown), the DC50 is 100 to 300 nM.
Then `CN1CCC(Oc2cc(Cl)cc(NC(=O)NCc3ccc4c(c3)C(=O)N(C3CCC(=O)NC3=O)C4)c2)C1` (stereo not shown), with greater than 300 nM; and `CC(C)(C)c1ccc(NC(=O)NCc2ccc3c(c2)C(=O)N(C2CCC(=O)NC2=O)C3)cn1` (stereo not shown), with less than 100 nM; and `CN1CCC(COc2cc(Cl)cc(NC(=O)NCc3ccc4c(c3)C(=O)N(C3CCC(=O)NC3=O)C4)c2)C1` (stereo not shown), with greater than 300 nM.
The figure for `O=C1CCC(N2Cc3ccc(CNC(=O)Nc4cc(F)cc(OC(F)(F)F)c4)cc3C2=O)C(=O)N1` (stereo not shown) is greater than 300 nM.
Consider `O=C1CCC(N2Cc3ccc(CNC(=O)Nc4cc(OC(F)(F)F)ccn4)cc3C2=O)C(=O)N1` (stereo not shown), for which the DC50 is greater than 300 nM.
The figure for `CC(C)(C)c1ccc(NC(=O)NCc2ccc3c(c2)C(=O)N(C2CCC(=O)NC2=O)C3)cc1` (stereo not shown) is greater than 300 nM.
